What was measured:
CD47 on Jurkat cells [1] = molecular target: CD47 on Jurkat cells (UniProt Q08722); assay: blocking of SIRPa-Fc binding to CD47, flow cytometry; Raji-PD-L1 cells
CD47 on Jurkat cells [2] = molecular target: CD47 on Jurkat cells (UniProt Q08722); assay: blocking of SIRPa-Fc binding to CD47, flow cytometry; PD-L1 negative Raji cells

IC50 (CD47 on Jurkat cells [1]): 54.7 nM
IC50 (CD47 on Jurkat cells [2]): 84.2 nM
Substance: IMM01

Source: patent publication US20230083670A1
